Sequences of proteins named here, by UniProt entry; tags and fusion partners are left off. A change or cut given only in a name is not applied to a line headed by its entry.
UniProt P41145: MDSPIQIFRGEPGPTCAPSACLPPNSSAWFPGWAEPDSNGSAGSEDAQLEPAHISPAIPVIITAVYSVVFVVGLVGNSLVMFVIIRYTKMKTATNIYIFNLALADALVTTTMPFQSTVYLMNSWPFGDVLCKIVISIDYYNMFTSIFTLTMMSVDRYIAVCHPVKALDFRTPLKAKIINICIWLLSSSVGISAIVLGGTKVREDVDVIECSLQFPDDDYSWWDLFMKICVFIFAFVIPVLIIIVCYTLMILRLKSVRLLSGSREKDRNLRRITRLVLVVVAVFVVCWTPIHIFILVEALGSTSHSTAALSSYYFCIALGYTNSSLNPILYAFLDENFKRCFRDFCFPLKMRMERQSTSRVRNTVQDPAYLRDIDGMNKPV

In ChEMBL document CHEMBL1149707, “Structure-activity relationship studies of carboxamido-biaryl ethers as opioid receptor antagonists (OpRAs). Part 1” (Bioorg Med Chem Lett, 2007):

Experiments:
[1] = molecular target: T1, Kappa-type opioid receptor (Homo sapiens, UniProt P41145); experiment: Displacement of [3H]diprenorphine from human kappa opioid receptor expressed in CHO cells in presence of high sodium by SPA; type: cell-based
[2] = molecular target: T1, Kappa-type opioid receptor; experiment: Antagonist activity at human kappa opioid receptor expressed in CHO cells by [35S]GTP-gamma-S binding assay; type: functional, cell-based

## NC(=O)c1ccc(Oc2ccc(CNCCc3ccccc3)cc2)nc1
[1]
  Ki: 8.38 nM
[2]
  Ki: 1.15 nM
